Assay [1] has as its system B. caryophilli PG2982. The assay can be described thus: Growth on phosphonates as the sole source of phosphorus. The following applies: data not shown.
The test system of assay [2] is OPH. The following applies: product of diisopropyl fluorophosphate hydrolysis by OPH; cited from earlier work.
Assay [3] has as its system P. testosteroni. The experiment in a line: Growth on phosphonates as the sole source of phosphorus. The following applies: 0.3 mM, NMM broth, 94 hours, 28° C.

In the case of `O=C(O)CNCP(=O)(O)O`, in assay [1], the “utilization as the sole phosphorus source” value is “capable of utilizing”. Consider diisopropyl phosphate, for which the “effect on OPH activity” value in assay [2] is recorded as “inhibitory”. In the case of inorganic phosphate, the “growth on phosphorus source as sole phosphorus source” value in assay [3] was “robust growth”.

The values are drawn from patent publication US6838277B1, “Furthering the enzymatic destruction of nerve agents” (dated 2005).
